Assay results from ChEMBL document CHEMBL4765404, “Identification of benzofused five-membered sultams, potent dual NOD1/NOD2 antagonists in vitro and in vivo” (Eur J Med Chem, 2020).
The source made the active and inactive calls.

By UniProt entry, the sequences of proteins in these tests, tags left out.
UniProt Q9HC29, whole entry: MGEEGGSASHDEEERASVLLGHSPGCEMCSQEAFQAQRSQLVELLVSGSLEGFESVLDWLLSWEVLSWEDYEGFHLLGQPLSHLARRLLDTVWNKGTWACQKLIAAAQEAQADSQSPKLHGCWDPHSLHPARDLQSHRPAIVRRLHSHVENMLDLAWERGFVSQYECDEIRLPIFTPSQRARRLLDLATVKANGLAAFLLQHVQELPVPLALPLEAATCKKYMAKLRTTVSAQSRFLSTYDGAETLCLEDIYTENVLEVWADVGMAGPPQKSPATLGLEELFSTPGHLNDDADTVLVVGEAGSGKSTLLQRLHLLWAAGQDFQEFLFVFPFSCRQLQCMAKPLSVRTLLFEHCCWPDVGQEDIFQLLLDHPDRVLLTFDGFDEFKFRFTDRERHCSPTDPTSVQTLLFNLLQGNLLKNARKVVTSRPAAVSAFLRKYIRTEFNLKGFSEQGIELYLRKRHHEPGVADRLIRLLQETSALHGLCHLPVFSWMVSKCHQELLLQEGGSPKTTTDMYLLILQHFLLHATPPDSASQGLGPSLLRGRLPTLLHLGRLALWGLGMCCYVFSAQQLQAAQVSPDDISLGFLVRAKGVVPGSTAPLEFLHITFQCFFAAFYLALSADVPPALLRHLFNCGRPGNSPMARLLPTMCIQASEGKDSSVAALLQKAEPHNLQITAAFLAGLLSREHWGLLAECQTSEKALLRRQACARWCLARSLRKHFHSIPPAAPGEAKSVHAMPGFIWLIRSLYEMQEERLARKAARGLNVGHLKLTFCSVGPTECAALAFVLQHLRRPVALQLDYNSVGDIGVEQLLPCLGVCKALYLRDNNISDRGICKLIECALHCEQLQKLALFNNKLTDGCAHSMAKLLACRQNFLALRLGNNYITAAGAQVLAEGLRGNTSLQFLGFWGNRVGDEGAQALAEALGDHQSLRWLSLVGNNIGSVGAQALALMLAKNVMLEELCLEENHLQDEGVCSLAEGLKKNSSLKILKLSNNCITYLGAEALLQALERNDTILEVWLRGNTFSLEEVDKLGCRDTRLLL

Legend:
Format in all cases: cell-based
Conditions in all cases: filed as antagonist, dose 1-10 µM
[1] = target: T1, Nucleotide-binding oligomerization domain-containing protein 2 (Homo sapiens, UniProt Q9HC29); assay: Inhibition of human NOD2 in human THP-1 cells assessed as inhibition of lauroyl-gamma-D-Glu-mDAP stimulated ERK phosphorylation measured after 90 mins by western blot method
[2] = target: T1, Nucleotide-binding oligomerization domain-containing protein 2; assay: Inhibition of human NOD2 in human THP-1 cells assessed as inhibition of lauroyl-gamma-D-Glu-mDAP stimulated JNK phoshorylation measured after 90 mins by western blot method
[3] = target: T1, Nucleotide-binding oligomerization domain-containing protein 2; assay: Inhibition of human NOD2 in human THP-1 cells assessed as inhibition of lauroyl-gamma-D-Glu-mDAP stimulated p38 phosphorylation measured after 90 mins by western blot method
[4] = target: T1, Nucleotide-binding oligomerization domain-containing protein 2; assay: Inhibition of human NOD2 in human THP-1 cells assessed as inhibition of lauroyl-gamma-D-Glu-mDAP stimulated reduction in IkappaBalpha expression measured after 90 mins by western blot method
[5] = target: T1, Nucleotide-binding oligomerization domain-containing protein 2; assay: Inhibition of human NOD2 in human THP-1 cells assessed as inhibition of lauroyl-gamma-D-Glu-mDAP stimulated RIP2 phoshorylation measured after 90 mins by western blot method
[6] = target: T1, Nucleotide-binding oligomerization domain-containing protein 2; assay: Inhibition of human NOD2 in human THP-1 cells assessed as inhibition of MDP stimulated IL-6 m-RNA expression measured after 150 mins by Real time quantitative reverse transcriptase PCR method

Measured: inhibition

CCCCOC(=O)CC1c2cccc(C)c2S(=O)(=O)N1C(=O)c1cccc(C(F)(F)F)c1 (stereo unspecified)
active: [1] | [2] | [3] | [4] | [5] | [6]
